Measured values taken from US8822500B2 (dated 2014).

Chains of the proteins cited; added tags and fusions are not shown. Residues count along the entry.
UniProt P04629, 33-796: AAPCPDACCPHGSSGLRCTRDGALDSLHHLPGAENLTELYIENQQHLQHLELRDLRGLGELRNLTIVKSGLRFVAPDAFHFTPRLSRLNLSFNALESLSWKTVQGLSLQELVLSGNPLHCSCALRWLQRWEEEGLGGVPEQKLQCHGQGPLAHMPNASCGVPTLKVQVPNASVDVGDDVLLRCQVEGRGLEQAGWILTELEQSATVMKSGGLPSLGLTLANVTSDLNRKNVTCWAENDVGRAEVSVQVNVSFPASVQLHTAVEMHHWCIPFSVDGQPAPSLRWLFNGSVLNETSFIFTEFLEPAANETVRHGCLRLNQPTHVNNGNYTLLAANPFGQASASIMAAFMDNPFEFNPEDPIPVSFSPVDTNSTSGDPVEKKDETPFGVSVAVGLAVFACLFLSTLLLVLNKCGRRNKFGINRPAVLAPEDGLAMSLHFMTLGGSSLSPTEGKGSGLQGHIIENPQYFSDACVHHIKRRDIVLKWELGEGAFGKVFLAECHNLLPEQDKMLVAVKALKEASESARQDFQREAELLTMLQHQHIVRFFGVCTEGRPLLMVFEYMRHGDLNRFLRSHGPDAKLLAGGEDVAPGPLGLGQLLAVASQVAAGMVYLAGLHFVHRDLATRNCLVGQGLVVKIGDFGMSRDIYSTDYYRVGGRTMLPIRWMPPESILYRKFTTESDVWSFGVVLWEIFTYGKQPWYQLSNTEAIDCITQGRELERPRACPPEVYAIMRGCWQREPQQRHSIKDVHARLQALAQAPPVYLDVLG
UniProt Q9UM73, 19-1620: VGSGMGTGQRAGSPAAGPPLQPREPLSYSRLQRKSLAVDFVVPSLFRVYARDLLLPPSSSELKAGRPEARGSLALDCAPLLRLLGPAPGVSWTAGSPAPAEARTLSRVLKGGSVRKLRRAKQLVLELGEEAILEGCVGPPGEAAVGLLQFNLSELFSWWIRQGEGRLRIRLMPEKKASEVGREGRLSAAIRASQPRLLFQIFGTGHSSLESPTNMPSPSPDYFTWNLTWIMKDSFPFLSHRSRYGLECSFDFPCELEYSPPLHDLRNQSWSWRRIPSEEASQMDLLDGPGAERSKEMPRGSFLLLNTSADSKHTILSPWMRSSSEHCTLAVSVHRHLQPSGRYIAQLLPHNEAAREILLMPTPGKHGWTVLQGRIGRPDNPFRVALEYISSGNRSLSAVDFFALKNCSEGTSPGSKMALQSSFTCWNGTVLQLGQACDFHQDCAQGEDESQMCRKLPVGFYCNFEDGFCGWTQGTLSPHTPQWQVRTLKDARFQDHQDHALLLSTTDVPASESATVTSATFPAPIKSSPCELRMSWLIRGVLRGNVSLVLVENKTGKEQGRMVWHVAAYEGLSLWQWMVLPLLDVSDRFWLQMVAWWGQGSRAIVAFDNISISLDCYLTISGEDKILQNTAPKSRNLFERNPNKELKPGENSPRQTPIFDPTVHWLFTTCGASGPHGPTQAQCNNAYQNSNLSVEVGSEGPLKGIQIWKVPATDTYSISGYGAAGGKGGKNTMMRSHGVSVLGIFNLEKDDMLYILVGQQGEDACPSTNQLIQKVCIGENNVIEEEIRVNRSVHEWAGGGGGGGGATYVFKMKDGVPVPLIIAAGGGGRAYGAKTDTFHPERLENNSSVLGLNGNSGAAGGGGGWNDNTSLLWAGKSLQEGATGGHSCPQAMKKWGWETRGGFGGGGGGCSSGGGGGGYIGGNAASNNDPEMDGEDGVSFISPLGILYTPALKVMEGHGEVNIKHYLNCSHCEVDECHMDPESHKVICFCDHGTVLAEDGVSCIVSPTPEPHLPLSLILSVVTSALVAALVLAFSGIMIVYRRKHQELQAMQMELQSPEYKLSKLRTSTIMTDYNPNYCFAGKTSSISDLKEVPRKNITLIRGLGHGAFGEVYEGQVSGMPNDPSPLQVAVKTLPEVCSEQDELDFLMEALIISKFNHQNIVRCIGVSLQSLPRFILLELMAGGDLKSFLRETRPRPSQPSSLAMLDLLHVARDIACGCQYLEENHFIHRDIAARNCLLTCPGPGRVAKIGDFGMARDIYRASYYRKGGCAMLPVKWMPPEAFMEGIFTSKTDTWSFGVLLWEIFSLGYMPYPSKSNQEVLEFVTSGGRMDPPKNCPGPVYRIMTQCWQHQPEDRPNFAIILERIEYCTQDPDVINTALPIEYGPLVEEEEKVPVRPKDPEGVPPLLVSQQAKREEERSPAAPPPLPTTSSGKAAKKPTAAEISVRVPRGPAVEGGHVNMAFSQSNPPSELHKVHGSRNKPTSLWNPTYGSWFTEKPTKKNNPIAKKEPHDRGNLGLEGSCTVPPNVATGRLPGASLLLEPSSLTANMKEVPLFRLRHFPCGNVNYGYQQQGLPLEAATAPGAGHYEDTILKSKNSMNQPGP
UniProt P06213, 28-1382: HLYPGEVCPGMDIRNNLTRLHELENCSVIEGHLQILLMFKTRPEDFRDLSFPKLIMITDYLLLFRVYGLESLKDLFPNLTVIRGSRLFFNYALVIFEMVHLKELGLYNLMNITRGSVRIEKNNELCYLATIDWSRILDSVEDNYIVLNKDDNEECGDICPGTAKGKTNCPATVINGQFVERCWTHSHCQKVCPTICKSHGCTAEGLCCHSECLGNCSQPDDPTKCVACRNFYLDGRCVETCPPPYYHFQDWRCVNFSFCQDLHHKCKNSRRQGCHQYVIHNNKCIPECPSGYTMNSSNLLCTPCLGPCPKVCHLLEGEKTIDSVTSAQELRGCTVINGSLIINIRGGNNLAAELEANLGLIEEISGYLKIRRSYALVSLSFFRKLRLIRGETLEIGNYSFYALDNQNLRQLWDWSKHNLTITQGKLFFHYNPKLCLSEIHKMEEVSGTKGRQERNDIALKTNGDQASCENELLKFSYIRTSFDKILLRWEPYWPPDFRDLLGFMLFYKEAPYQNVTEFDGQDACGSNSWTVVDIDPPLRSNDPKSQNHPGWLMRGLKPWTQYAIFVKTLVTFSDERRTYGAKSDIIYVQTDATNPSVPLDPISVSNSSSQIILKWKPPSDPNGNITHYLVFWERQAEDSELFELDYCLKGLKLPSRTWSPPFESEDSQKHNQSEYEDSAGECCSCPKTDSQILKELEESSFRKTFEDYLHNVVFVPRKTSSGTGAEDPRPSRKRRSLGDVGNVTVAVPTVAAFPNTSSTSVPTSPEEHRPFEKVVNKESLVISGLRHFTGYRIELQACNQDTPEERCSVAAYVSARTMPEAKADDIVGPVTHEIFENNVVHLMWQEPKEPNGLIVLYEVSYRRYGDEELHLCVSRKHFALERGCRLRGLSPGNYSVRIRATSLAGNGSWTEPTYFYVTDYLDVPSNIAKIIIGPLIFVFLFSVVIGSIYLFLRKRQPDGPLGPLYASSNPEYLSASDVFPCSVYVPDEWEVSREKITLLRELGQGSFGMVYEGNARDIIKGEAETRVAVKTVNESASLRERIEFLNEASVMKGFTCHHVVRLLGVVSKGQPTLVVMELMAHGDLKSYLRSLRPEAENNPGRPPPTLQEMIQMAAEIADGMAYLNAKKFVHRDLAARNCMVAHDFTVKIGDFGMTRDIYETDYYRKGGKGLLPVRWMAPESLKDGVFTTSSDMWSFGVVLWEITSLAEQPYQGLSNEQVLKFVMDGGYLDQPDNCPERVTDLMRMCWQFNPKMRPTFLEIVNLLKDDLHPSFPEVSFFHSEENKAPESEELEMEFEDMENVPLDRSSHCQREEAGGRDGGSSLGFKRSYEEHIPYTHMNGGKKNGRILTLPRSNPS

Tests used:
Assay in all cases: In vitro kinase activity assay (LANCE TR-FRET)
Format in all cases: biochemical
[1] = target: TrkA (Homo sapiens (Human), UniProt P04629); conditions: TrKA IC50(μM);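 further: kinase reaction with poly-GT peptide substrate and ATP, phosphorylated product quantified by time-resolved FRET, eleven-point dose curves from 10^−11 to 10^−5 M in triplicate, DMSO as negative control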
[2] = target: ALK (Homo sapiens (Human), UniProt Q9UM73); conditions: read-out: ALK IC50;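 further: kinase reactions with ATP and a poly-GT peptide substrate, phosphorylated product read by time-resolved FRET, 11-point curve from 10^−11 to 10^−5 M, DMSO as negative control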
[3] = target: INSR (Homo sapiens (Human), UniProt P06213); conditions: read-out: IRK IC50

| Compound | IC50 [1] [µM] | IC50 [2] [nM] | IC50 [3] [nM] |
| --- | --- | --- | --- |
| C[C@@H](Cc1c(F)c(F)cc(F)c1F)Nc1cc[nH]c(=O)c1-c1nc2cc3c(cc2[nH]1)C(=O)N(CCN(C)C)C3 [Compound 1, (S)-6-(2-(Dimethylamino)ethyl)-2-(2-oxo-4-((1-(2,3,5,6-tetrafluorophenyl)propan-2-yl)amino)-1,2-dihydropyridin-3-yl)-6,7-dihydroimidazo[4,5-f]isoindol-5(3H)-one] | 0.001 |  |  |
| Staurosporine [reference compound] |  | 2 | 42 |
